60 compounds from PubChem BioAssay AID1779 (Sanford-Burnham Center for Chemical Genomics, 2009) can be followed below.

Amino acid sequences for entries named in this document (tags omitted).
UniProt Q9Y2R2, whole entry: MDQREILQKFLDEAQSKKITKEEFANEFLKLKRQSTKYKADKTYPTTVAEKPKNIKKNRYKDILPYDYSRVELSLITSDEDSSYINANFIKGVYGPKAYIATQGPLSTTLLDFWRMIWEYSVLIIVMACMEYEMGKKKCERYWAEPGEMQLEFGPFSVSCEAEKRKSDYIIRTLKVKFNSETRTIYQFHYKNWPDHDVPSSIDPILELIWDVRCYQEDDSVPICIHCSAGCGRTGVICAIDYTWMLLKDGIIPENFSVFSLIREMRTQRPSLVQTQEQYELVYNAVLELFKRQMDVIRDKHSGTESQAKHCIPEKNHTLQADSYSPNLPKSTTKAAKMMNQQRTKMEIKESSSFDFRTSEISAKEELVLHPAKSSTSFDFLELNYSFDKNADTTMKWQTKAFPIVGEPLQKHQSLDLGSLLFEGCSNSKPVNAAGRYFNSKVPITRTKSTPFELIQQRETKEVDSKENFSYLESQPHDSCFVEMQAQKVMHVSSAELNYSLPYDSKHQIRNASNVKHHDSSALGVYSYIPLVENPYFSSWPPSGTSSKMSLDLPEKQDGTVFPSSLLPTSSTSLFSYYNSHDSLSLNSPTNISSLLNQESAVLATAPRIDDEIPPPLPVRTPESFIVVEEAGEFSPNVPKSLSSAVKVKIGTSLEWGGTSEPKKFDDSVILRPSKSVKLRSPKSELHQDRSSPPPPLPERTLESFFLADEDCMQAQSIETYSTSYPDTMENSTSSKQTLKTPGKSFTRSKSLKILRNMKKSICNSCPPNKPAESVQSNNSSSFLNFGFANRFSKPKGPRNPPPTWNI

This is a selection; strong and weak results do not stand in their true shares. Some salts and complexes are drawn in separate pieces, as the source files them; their charges need not balance. Active and inactive are the calls of the source. Cut-off read from the data, not from the text of the source: active = inhibition above about 50%; inactive = the rest.

The assay has as its target Tyrosine-protein phosphatase non-receptor type 22 (Homo sapiens) (UniProt Q9Y2R2). Kind of assay: PTPN22 lymphoid phosphatase activity blockers – biochemical, fluorescence intensity, uHTS (AID 1779).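 Note: plate controls were vehicle with enzyme for no effect and no enzyme for full effect.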 To be noted: recombinant LYP phosphatase, at 11.5 µM, hits give high values.
By inhibition is commonly meant the relative decrease from the control value, in per cent. With `CP(=O)(OC12CC3CC(CC(C3)C1)C2)OC12CC3CC(CC(C3)C1)C2`, the inhibition was inactive: 3%.

In the case of `CCOC(=O)c1ccc(NP(C)(=O)Oc2ccc(Cl)cc2)cc1` (stereo not given), the inhibition is inactive: 2.4%.

Take `CP(=O)(Oc1ccccc1)N1CCOC1=O` (stereo not given): the inhibition was inactive: -8.9%.

With `CCc1ccc(OP(C)(=O)Nc2cccnc2)cc1` (stereo not given), the inhibition was inactive: 0.6%.

Take `COc1ccccc1OP(C)(=O)Nc1c(C)n(C)n(-c2ccccc2)c1=O` (stereo not given): the inhibition was inactive: -2.4%.

Regarding `O=C(OCCCN1CCCC1)C(O)(c1ccccc1)C1CCCCC1` (stereo not given), the inhibition was inactive: -5.6%.

As to `CCN(CC)CC(O)COC(=O)C(O)(c1ccccc1)C1CCCCC1` (stereo not given), the inhibition was inactive: -5.8%.

For the compound `COc1ccc(OP(C)(=O)Nc2ccc(Br)cc2)cc1` (stereo not given), the inhibition was inactive: -3.6%.

Consider `CN(C)C(=O)c1c([N+](=O)[O-])cc([N+](=O)[O-])cc1[N+](=O)[O-]`, for which the inhibition is inactive: -5.3%.

With `CP(=O)(Nc1ccc(Cl)cc1)Oc1ccc(F)cc1` (stereo not given), the inhibition was inactive: -2.9%.

On to `CC(C)(C)c1ccc(OP(C)(=O)O)cc1`, for which the inhibition is inactive: 1%.

Take `COc1ccccc1OP(C)(=O)Nc1ccccc1Br` (stereo not given): the inhibition is inactive: -1.5%.

With `CN(C)CCOC(=O)C(O)(c1ccccc1)C1CCCC1` (stereo not given), the inhibition was inactive: -5.1%.

For the compound `COc1ccc(OP(C)(=O)Nc2ccccn2)cc1` (stereo not given), the inhibition was inactive: -8.7%.

With `COc1ccccc1OP(C)(=O)Nc1ccc(Br)cc1` (stereo not given), the inhibition is inactive: -5.2%.

On to `CCc1ccc(OP(C)(=O)O)cc1`, for which the inhibition was inactive: -11%.

Consider `CP(=O)(Nc1ccccn1)Oc1ccccc1` (stereo not given), for which the inhibition is inactive: 2.2%.

On to `COc1ccccc1OP(C)(=O)Nc1ccc(C)cc1C` (stereo not given), for which the inhibition was inactive: -8.6%.

In the case of `O=[N+]([O-])c1cc([N+](=O)[O-])c(Nc2ccccn2)c([N+](=O)[O-])c1`, the inhibition is inactive: -7.8%.

Consider `Cc1c(NP(C)(=O)Oc2ccc(C(C)C)cc2)c(=O)n(-c2ccccc2)n1C` (stereo not given), for which the inhibition is inactive: -7%.

In the case of `COc1ccc(OP(C)(=O)Nc2ccccc2Br)cc1` (stereo not given), the inhibition was inactive: -5.8%.

Regarding `COc1ccccc1OP(C)(=O)Nc1ccc(C)c(C)c1` (stereo not given), the inhibition was inactive: 0.9%.

As to `Cc1cc(C)cc(OP(C)(=O)Nc2cccc(C(F)(F)F)c2)c1` (stereo not given), the inhibition is inactive: -1%.

Take `CP(=O)(OCCOc1ccccc1)OCCOc1ccccc1`: the inhibition was inactive: 0.2%.

For `CP(=O)(Nc1ccc(Cl)cc1Cl)Oc1ccccc1` (stereo not given), the inhibition was inactive: -1%.

On to `Cc1nc2ccc3ccccc3c2o1.O=[N+]([O-])c1cc([N+](=O)[O-])c(O)c([N+](=O)[O-])c1`, for which the inhibition is inactive: -4.2%.

`COc1ccc(OP(C)(=O)Nc2ccc(SC(F)(F)F)cc2)cc1` (stereo not given): the inhibition was inactive: -5.3%.

As for `CCOC(=O)c1ccc(NP(C)(=O)Oc2ccc(F)cc2)cc1` (stereo not given), the inhibition is inactive: -0.6%.

For the compound `CCCCCOc1ccc(NP(C)(=O)Oc2ccc(Cl)cc2Cl)cc1` (stereo not given), the inhibition was inactive: 0.6%.

With `O=[N+]([O-])c1cc([N+](=O)[O-])c(OC2CCCCC2O)c([N+](=O)[O-])c1` (stereo not given), the inhibition is inactive: -3.3%.

As to `CP(=O)(Nc1ccccc1)Oc1ccc(F)cc1` (stereo not given), the inhibition was inactive: -5.5%.

With `CCN(CC)CCCOC(=O)C(O)(c1ccccc1)C1CCCCC1` (stereo not given), the inhibition is inactive: -10.2%.

Consider `CC(C)c1ccc(OP(C)(=O)Nc2ccc(SC(F)(F)F)cc2)cc1` (stereo not given), for which the inhibition is inactive: 0.5%.

Regarding `CP(=O)(Nc1ccccc1F)Oc1ccccc1` (stereo not given), the inhibition was inactive: -10.8%.

Regarding `COc1ccc2c(c1O)-c1c(O)c(OC)cc3c1[C@H](C2)[N+](C)(C)CC3.O=[N+]([O-])c1cc([N+](=O)[O-])c([O-])c([N+](=O)[O-])c1[O-]`, the inhibition is inactive: -6.1%.

For the compound `O=C(OCCN1CCN(CCOCc2ccccc2)CC1)C(O)(c1ccccc1)c1ccccc1`, the inhibition is inactive: -8.9%.

`O=C(OC1CN2CCC1CC2)c1ccc([N+](=O)[O-])cc1` (stereo not given): the inhibition was inactive: -8.3%.

On to `CCOP(C)(=S)SCC(=O)NC(C)(CC)C(=O)O` (stereo not given), for which the inhibition was inactive: -0.1%.

For `CP(=O)(Nc1ccc(SC(F)(F)F)cc1)Oc1ccc(F)cc1` (stereo not given), the inhibition is inactive: -6.4%.

For the compound `Cc1ccccc1NP(C)(=O)Nc1ccccc1C`, the inhibition was inactive: -2.5%.

Turning to `CP(=O)(Nc1ccc2c(c1)OCCO2)Oc1ccccc1` (stereo not given), the inhibition is inactive: 2.8%.

In the case of `COc1ccc(NP(C)(=O)Oc2ccccc2OC)cc1` (stereo not given), the inhibition was inactive: -5.8%.

With `CN(C)CCOC(=O)C(O)(c1ccccc1)C1CCCCC1` (stereo not given), the inhibition was inactive: -12.1%.

Regarding `COc1ccc(OP(C)(=O)Nc2cccc(Br)c2)cc1` (stereo not given), the inhibition is inactive: -2.8%.

Consider `O=[N+]([O-])c1cc([N+](=O)[O-])c(NCC2CCS(=O)(=O)C2)c([N+](=O)[O-])c1` (stereo not given), for which the inhibition is inactive: -1.4%.

Turning to `Cc1cc(-c2cccc3ccccc23)c(C)cn1.O=[N+]([O-])c1cc([N+](=O)[O-])c(O)c([N+](=O)[O-])c1`, the inhibition was inactive: -0.1%.

With `O=[N+]([O-])c1ccc(OP2(=O)COCCO2)cc1` (stereo not given), the inhibition is inactive: -4.6%.

Consider `O=[N+]([O-])c1cc([N+](=O)[O-])c(Nc2nnnn2CCO)c([N+](=O)[O-])c1`, for which the inhibition is inactive: -1.6%.

Consider `CCOC(=O)C(CC)C1=NC(C)(C)Cc2ccccc21.O=[N+]([O-])c1cc([N+](=O)[O-])c(O)c([N+](=O)[O-])c1` (stereo not given), for which the inhibition was inactive: -1.7%.

Take `CP(=O)(Nc1ccc(SC(F)(F)F)cc1)Oc1ccccc1` (stereo not given): the inhibition was inactive: -3%.

For the compound `CCCOc1ccc(NP(C)(=O)Oc2ccc(Cl)cc2)cc1` (stereo not given), the inhibition was inactive: -5.7%.

For the compound `CN1CCCCC1COC(=O)C1(O)c2ccccc2CCc2ccccc21` (stereo not given), the inhibition is inactive: 2%.

In the case of `COc1ccccc1OP(C)(=O)Nc1c(C)cccc1C` (stereo not given), the inhibition is inactive: -2.3%.

For `O=[N+]([O-])c1cc([N+](=O)[O-])c(-n2nnc3ccccc32)c([N+](=O)[O-])c1`, the inhibition was inactive: -8.6%.

Regarding `Cc1nc2ccc3ccccc3c2s1.O=[N+]([O-])c1cc([N+](=O)[O-])c(O)c([N+](=O)[O-])c1`, the inhibition is inactive: -4.6%.

As for `Cc1cc(C)cc(OP(C)(=O)Nc2ccc(C)cc2C)c1` (stereo not given), the inhibition was inactive: -7.7%.

For `CCOC(=O)c1ccc(NP(C)(=O)Oc2cc(C)cc(C)c2)cc1` (stereo not given), the inhibition is inactive: -0.7%.

For the compound `COc1ccccc1OP(C)(=O)Nc1cccc(Br)c1` (stereo not given), the inhibition was inactive: -7.7%.

Take `CP(=O)(Nc1cccc(Br)c1)Oc1ccccc1` (stereo not given): the inhibition is inactive: -2.9%.

Regarding `Cc1cc(C)cc(OP(C)(=O)Nc2ccccn2)c1` (stereo not given), the inhibition is inactive: -8.9%.
